Some tests of the compounds listed are not included; inactive here does not mean inactive elsewhere. Calls of active or inactive are those of the source.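 The calls were made as follows: active = a tumour-causing dose and a tumour site recorded for mice in at least one sex group; inconclusive = only government mouse studies exist and were judged inadequate; inactive = mouse studies exist but none gave tumours.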
Tested on: mouse carcinogenicity bioassay, TD50 from CPDB
Assay: DSSTox (CPDBAS) Carcinogenic Potency Database Summary Mouse Bioassay Results
Conditions: TD50_Mouse_Note: no positive results; TargetSites_Mouse_Female: no positive results
Excerpt: The Carcinogenic Potency Database (CPDB) is a unique and widely used international resource of the results of over 6500 chronic, long-term animal cancer tests on over 1500 chemical substances. The CPDB provides easy access to the bioassay literature, with qualitative and quantitative analyses of both positive and negative experiments that have been published over the past 50 years in the general literature and by the National Cancer Institute/National Toxicology Program. The CPDB standardizes the diverse literature of cancer bioassays that vary widely in protocol, histopathological examination and nomenclature, and in the published author's choices of what information to provide in their papers. Results are reported in the CPDB for tests in rats, mice, hamsters, dogs, and nonhuman primates, and are based on the most positive result among all experiments for each sex-species. The DSSTox CPDBAS (all species) file incorporates data from the CPDB Summary Tables for the full list of over 1500 chemical substances tested in at least one species. Summary bioassay results for Mouse (TD50, tumor sites, male, female, both sexes) are provided in the CPDB Summary Tables and the DSSTox CPDBAS file for over 1000 chemical substances.
TD50 is a standardized quantitative measure of carcinogenic potency (analogous to an LD50) and is reported in the CPDB Summary Table for each species. […]

For N#CC(C#N)=Cc1ccccc1Cl, the outcome was “inactive; no positive results”.

From PubChem BioAssay AID1199 (EPA DSSTox, 2008)
